Source: patent publication US9556159B2, “Renin inhibitor” (MITSUBISHI TANABE PHARMA CORPORATION, priority 2012, dated 2017)

By UniProt entry, the sequences of proteins in these tests, tags left out. Residues count along the entry.
UniProt P00797, 67-406 limits assumed: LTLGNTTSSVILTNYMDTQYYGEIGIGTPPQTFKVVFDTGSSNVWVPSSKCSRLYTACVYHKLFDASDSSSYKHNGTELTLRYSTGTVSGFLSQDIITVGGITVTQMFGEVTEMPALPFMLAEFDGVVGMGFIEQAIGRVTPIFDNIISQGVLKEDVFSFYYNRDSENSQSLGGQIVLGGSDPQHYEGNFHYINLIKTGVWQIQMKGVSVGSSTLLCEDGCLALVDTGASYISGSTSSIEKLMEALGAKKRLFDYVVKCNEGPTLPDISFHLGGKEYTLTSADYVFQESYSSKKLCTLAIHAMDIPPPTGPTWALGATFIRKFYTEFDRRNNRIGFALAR

Target: Recombinant human renin (Homo sapiens, UniProt P00797)
Assay: Inhibitory activity against human renin (fluorogenic peptide substrate)
Format: biochemical
Conditions: read-out: 50% inhibitory concentration (IC50) against human renin, 37° C. for 1 hour

COC(=O)NCCCc1cc([C@@H](C)N(C(=O)[C@H]2CNCCO2)C2CC2)sc1-c1ccc(-c2nn[nH]n2)cc1 showed an IC50 of 0.4 nM.
